# Measured values from patent US20250127913A1, “BIFUNCTIONAL FOLATE RECEPTOR BINDING COMPOUNDS” (LYCIA THERAPEUTICS, INC., priority 2021, published 2025).
# By UniProt entry, the sequences of proteins in these tests, tags left out. Residues count along the entry.
# UniProt P14207, 17-255 limits assumed: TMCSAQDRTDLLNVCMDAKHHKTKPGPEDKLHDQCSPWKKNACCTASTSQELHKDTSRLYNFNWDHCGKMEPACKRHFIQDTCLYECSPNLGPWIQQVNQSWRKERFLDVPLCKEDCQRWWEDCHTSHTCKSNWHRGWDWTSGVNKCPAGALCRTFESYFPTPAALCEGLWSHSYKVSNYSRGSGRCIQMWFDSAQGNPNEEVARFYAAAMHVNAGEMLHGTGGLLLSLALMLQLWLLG
# UniProt P01375, 77-233 limits assumed: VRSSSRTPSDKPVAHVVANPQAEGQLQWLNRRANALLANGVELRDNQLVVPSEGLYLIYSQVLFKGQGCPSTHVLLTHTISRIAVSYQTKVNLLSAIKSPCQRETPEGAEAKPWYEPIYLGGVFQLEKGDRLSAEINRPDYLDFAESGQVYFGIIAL
# pKd: −log10 of the molar value.
# Columns and labels:
# [1] = biological target: FOLR2 (Homo sapiens (Human), UniProt P14207); experiment: SPR binding kinetics of compounds to folate receptor (FOLR2 immobilized on CM5 chip); details: read-out: Folate binding SPR Kd
# Protocol: A Biacore 8K+ was used to measure the association and dissociation rates of example compounds to FOLR2 (Acro Biosystems, Cat: F02-H5223-100 μg). Briefly, FOLR2 was reconstituted according to the manufacture's instructions to 200 μg/mL. Both the active and reference surfaces of a Cytiva CM5 Series S Sensor Chip were activated with a 1:1 mixture of 400 mM EDC and 100 mM NHS for 420 s at 10 μL/min. 25 μg/mL FOLR2 diluted in Sodium Acetate pH 5.5 was injected on the active channel (Flow Cell 2) for 420 s at 10p/min. Both the reference and active surfaces were then capped with 1M ethanolamine, pH 8.5 for 420 s, achieving an immobilization level of ˜4200 RU. Example compounds were serially diluted 1:1 in running buffer (10 mM HEPES, 150 mM NaCl, 0.05% T20, pH 7.5, 2% DMSO) from 100 nM to 3.125 nM and flowed over the active and reference surfaces for 120 s, and then allowed to dissociate in running buffer for 600 s, at 30 uL/min. The FOLR2 immobilized active surface and the reference surface were regenerated with a 30 s pulse of Sodium Acetate pH 5.5 at 30 μL/min. Sensorgrams were solvent corrected, double-referenced, and the data fitted and analyzed in Biacore Insight Evaluation Software Version 3.0.11.15423.
# [2] = biological target: TNFα trimer (Homo sapiens, UniProt P01375); experiment: SPR binding kinetics of compounds to TNFα trimer; details: read-out: TNFα binding SPR; class symbols
# Protocol: Streptavidin 100 μg/mL Streptavidin (Invitrogen Cat #: 434302) diluted in 10 mM sodium acetate, pH 4.5) was immobilized to both the reference and active surfaces as described in Example 51. The surfaces were conditioned with three injections of running Buffer (10 mM HEPES, 150 mMNaCl, 0.05% T20, pH 7.5, 2% DMSO) at a flow rate of 10 μL/min, Contact time: 60 s. Flow rate: 10 μL/min. The active surface was treated with biotinylated linked TNFα trimer 20 μg/mL diluted in running buffer at a flow rate of 5 μL/min contact time: 600 s, yielding a final response of ˜3000 RU. Example compounds were then serially diluted 1:1 in running buffer (10 mM HEPES, 150 mM NaCl, 0.05% T20, pH 7.5, 2% DMSO) from 30 uM to 937.5 nM and flowed over the active and reference surfaces from lowest concentration to greatest concentration in the single-cycle kinetics format, and then allowed to dissociate in running buffer for 7200 s, at 30 μL/min. Sensorgrams were solvent corrected, double-referenced, and the data fitted and analyzed in Biacore Insight Evaluation Software Version 3.0.11.15423.
# [3] = tested on: TNFα trimer complex to folate receptor (FOLR2); experiment: SPR co-engagement of compound-TNFα trimer complex to folate receptor; details: TNFα + 10 nM compound binding FOLR2
# Protocol: The active (Flow cell 2) surfaces of a Cytiva CM5 Series S Sensor Chip functionalized with FOLR2 as described in Example 58. Example compounds were diluted to 10 nM with 50 and 100 nM TNFα single chain trimer or 150 nM and 300 nM TNFα native monomer in running buffer (10 mM HEPES, 150 mM NaCl, 0.05% T20, pH 7.5, 2% DMSO), allowed to incubate for 5 hours at 25° C. and then flowed over the active and reference surfaces for 110 s, and then allowed to dissociate in running buffer for 600 s, at a flow rate of 30 μL/min. The FOLR2 immobilized active surface and the reference surface were regenerated with a 30 s pulse of 4M MgCl2 at 30 μL/min then allowed to equilibrate 240 s. Sensorgrams were solvent corrected, double-referenced, and the data fitted and analyzed in Biacore Insight Evaluation Software Version 3.0.11.15423.
# [4] = tested on: THP-1 cells; experiment: Compound mediated uptake of TNFα-pHrodo in THP-1 cells (flow cytometry); parameters: key to the marks not given beside the values; details: ΔMFI compared with I-17, uptake at 10 μM
# Protocol: THP-1 cells, a monocytic leukemia cell line that endogenously express folate receptor beta, were used as a model system to measure example compound stimulated uptake of in-house produced TNFα conjugated to the pH sensitive fluorescent dye pHrodo green (ThermoFisher Scientific #P35369).
# THP-1 cells were maintained in RPMI (Gibco #61870143) with 10% v/v FBS (VWR #89510-188) with 2 mM L-alanyl-L-glutamine dipeptide, 100 units/ml penicillin and 100 μg/ml streptomycin (Gibco #15140148). Cells were pelleted, resuspended in folate-free RPMI (Gibco #27016021) and seeded at 50,000 cells per well of a 96 well plate. Example compound was added to each well as a log 2 dilution series ranging from 20 μM to 125 nM final concentration. Cells were incubated for 24 hrs and washed/resuspended in phosphate buffered saline (pH 7.4) with 1% w/v BSA. Uptake was measured using a Novocyte Advanteon Flow Cytometer (Agilent Technologies) with the […] and FITC detection configuration.
compound,measurement,setting,value
Cc1ccc(C)c(Nc2c(Cl)c(C)nc3ccc(-c4ccc(C(=O)NCCCCn5cc(COCCOCCOCCOCCNC(=O)CC[C@H](NC(=O)c6ccc(NCc7cnc8nc(N)nc(O)c8n7)cc6)C(=O)O)nn5)nc4)cc23)c1,pKd,[1],9.52
same,pKd,[2],> 6.00
same,co-engagement / complex formation observed on SPR,[3],complex formation observed
same,Uptake in THP1 cells (run) 3,[4]; run 3,++
same,Uptake in THP1 cells (run) 4,[4]; run 4,++
